Reference: patent publication US12091408B2, “Store overload-induced calcium release inhibitors and methods for producing and using the same” (UTI Limited Partnership, priority 2013, dated 2024)
Entries after “also recorded” stand apart in the source; their conditions may differ.

Chains of the proteins cited; added tags and fusions are not shown.
UniProt E9Q401, whole entry R4495C: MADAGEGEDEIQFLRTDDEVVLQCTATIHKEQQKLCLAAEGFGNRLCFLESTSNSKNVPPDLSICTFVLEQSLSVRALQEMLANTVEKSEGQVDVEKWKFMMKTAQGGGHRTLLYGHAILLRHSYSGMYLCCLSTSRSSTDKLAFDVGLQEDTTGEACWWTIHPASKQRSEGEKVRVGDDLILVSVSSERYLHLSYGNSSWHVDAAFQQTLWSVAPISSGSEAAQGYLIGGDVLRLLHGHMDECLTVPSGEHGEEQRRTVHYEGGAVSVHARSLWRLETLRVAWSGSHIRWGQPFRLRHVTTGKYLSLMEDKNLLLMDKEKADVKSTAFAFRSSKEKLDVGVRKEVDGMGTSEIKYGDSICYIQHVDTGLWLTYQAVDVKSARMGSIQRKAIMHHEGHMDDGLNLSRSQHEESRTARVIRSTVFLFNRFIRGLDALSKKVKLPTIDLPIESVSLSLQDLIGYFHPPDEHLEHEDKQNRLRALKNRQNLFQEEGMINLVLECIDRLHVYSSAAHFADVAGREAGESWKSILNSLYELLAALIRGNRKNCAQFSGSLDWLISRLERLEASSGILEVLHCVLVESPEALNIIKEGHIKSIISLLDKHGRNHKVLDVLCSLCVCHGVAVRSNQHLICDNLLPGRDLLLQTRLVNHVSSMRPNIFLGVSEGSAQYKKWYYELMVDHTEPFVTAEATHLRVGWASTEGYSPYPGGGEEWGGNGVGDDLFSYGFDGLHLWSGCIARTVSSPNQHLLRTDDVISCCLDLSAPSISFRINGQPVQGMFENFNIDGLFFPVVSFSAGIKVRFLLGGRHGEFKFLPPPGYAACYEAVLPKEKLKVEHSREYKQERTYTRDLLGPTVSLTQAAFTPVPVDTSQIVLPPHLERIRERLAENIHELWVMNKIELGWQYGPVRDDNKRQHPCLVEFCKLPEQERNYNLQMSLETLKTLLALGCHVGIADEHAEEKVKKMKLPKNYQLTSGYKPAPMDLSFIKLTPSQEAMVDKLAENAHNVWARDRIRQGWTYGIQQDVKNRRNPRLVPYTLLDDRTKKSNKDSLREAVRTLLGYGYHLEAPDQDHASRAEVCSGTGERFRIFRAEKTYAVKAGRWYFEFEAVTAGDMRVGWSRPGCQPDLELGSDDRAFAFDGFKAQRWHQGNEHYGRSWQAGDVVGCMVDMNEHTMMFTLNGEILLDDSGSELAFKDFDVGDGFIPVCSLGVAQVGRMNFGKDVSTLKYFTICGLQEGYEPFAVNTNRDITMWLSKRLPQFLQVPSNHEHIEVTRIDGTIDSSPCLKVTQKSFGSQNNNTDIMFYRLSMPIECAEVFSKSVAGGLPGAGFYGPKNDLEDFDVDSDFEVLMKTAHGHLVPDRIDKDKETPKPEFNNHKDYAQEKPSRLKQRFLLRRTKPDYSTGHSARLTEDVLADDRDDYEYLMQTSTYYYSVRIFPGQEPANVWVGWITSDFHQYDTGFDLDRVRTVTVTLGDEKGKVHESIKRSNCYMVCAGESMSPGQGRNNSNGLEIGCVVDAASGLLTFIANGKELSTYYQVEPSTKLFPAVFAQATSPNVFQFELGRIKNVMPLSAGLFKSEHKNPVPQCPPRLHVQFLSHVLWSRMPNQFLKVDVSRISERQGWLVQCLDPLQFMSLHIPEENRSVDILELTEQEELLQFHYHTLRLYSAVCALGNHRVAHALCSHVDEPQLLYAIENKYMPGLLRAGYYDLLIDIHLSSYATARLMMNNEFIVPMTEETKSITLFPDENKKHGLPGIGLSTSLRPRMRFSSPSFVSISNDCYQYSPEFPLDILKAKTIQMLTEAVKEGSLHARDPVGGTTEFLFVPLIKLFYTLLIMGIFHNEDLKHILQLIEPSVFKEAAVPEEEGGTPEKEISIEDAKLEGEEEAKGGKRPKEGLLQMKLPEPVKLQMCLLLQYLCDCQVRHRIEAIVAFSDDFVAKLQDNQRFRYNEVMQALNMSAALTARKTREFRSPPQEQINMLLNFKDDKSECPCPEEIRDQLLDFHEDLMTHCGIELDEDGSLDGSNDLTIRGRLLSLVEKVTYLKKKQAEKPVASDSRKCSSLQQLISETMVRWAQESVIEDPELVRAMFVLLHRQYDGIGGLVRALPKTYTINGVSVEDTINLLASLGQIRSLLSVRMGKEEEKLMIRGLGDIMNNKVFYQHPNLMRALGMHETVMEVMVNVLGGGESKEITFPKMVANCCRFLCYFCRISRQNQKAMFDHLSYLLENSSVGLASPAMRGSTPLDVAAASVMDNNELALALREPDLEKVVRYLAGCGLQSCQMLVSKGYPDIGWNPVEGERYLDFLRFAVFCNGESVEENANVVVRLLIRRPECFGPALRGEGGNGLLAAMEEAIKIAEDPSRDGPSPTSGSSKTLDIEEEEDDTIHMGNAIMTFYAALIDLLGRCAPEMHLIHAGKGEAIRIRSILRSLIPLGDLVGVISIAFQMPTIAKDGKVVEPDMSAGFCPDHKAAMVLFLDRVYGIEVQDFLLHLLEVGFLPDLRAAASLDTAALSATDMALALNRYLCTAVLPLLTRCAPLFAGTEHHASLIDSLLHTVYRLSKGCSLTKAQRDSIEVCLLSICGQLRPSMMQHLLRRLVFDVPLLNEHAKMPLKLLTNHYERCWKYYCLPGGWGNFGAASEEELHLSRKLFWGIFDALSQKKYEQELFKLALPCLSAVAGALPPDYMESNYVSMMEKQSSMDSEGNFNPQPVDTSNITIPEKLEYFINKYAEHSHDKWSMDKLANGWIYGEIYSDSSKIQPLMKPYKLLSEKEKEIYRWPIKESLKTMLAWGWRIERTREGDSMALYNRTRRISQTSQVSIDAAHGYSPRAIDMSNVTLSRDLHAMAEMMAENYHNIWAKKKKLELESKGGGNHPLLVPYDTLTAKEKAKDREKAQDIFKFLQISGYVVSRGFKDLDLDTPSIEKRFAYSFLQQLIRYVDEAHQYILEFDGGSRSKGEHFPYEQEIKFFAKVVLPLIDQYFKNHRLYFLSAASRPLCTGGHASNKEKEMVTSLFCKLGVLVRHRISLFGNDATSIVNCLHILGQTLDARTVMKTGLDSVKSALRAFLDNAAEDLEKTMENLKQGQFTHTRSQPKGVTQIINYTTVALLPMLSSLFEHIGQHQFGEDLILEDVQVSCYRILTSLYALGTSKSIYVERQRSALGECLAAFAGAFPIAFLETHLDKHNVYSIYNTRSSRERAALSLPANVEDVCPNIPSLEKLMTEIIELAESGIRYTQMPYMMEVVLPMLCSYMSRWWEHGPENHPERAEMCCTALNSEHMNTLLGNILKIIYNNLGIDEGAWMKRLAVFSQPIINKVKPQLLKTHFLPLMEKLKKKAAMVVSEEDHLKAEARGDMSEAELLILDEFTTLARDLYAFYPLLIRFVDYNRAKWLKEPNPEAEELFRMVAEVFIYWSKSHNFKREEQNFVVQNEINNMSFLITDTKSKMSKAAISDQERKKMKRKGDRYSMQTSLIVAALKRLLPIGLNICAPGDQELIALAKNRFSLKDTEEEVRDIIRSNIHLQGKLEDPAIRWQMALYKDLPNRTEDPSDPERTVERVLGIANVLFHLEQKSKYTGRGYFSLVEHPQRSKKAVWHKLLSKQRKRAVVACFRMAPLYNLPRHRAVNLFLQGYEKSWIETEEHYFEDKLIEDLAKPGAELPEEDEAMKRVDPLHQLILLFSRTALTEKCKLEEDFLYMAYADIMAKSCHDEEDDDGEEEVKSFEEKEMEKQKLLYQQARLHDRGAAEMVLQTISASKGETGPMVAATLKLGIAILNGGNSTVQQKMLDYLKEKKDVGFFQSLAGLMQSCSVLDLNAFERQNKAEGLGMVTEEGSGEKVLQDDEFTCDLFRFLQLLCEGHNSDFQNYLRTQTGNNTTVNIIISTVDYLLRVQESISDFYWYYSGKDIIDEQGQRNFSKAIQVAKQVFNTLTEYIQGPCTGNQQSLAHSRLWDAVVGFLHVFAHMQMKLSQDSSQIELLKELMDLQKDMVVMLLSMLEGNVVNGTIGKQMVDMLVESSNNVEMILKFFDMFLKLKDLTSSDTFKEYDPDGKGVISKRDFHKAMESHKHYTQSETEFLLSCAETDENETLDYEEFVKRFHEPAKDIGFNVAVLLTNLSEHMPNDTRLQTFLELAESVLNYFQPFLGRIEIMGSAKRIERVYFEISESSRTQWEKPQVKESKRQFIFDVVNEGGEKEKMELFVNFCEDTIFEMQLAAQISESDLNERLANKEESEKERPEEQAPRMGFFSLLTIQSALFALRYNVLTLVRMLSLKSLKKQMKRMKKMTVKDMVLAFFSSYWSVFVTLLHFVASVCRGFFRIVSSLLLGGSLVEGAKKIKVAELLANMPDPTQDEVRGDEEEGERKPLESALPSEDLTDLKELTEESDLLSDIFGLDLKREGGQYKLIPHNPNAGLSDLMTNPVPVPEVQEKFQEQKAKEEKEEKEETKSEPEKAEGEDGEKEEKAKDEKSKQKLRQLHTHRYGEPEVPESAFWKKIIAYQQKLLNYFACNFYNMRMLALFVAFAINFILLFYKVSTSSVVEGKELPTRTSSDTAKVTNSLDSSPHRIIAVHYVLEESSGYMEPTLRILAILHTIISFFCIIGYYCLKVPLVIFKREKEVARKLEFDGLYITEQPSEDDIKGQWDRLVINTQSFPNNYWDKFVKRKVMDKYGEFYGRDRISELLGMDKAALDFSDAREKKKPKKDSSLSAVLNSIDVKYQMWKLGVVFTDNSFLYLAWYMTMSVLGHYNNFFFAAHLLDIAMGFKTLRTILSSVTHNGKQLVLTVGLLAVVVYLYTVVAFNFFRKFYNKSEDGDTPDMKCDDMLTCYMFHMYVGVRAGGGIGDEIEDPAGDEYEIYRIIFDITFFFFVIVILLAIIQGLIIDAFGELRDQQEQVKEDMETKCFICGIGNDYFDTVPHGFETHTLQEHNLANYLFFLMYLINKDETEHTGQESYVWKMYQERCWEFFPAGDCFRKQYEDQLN

What was measured:
β-adrenergic receptor = conditions: already shown; cited from earlier work
[1] = molecular target: T1, RyR2-R4496C mutant HEK-293 cell line (Mus musculus, UniProt E9Q401, R4495C); test: SOICR inhibition, single cell bioassay (fura 2/AM calcium fluorescence); format: cell-based; conditions: RyR2-R4496C mutant HEK293 single cell bioassay
T1 construct: expressed in transfected cells; host or cells: HEK-293
Method: IC50 values were measured for each of the compounds investigated.
All compounds were tested for SOICR inhibition in the RyR2-R4496C mutant HEK293 cell line and the IC50 values.

SMILES	reduction of β-blockade relative to carvedilol (β-adrenergic receptor)	SOICR inhibitory activity in words [1]	SOICR inhibitory activity in words ([1]; listed as JTV519 (102))
COc1ccccc1OCCNCC(O)CCOc1cccc2[nH]c3ccccc3c12 (stereo not drawn) [Compound 2]	about 1000 fold		
COc1ccccc1OCCNCC(O)COc1ccc2[nH]c3ccccc3c2c1 (stereo not drawn) [Compound 3]	about 1000 fold	superior to carvedilol	
COc1ccccc1OCCNCC(O)COc1ccc2c(c1)[nH]c1ccccc12 (stereo not drawn) [Compound 4]	about 1000 fold		
OC(CNCCOc1ccccc1)COc1cccc2[nH]c3ccccc3c12 (stereo not drawn) [Compound 8]		without deleterious effects on SOICR inhibition	
Oc1ccccc1OCCNCC(O)COc1cccc2[nH]c3ccccc3c12 (stereo not drawn) [Compound 9]		without deleterious effects on SOICR inhibition	
Cc1ccccc1OCCNCC(O)COc1cccc2[nH]c3ccccc3c12 (stereo not drawn) [Compound 10]		without deleterious effects on SOICR inhibition	
CSc1ccccc1OCCNCC(O)COc1cccc2[nH]c3ccccc3c12 (stereo not drawn) [Compound 11]		without deleterious effects on SOICR inhibition	
COc1ccccc1SCCNCC(O)COc1cccc2[nH]c3ccccc3c12 (stereo not drawn) [Compound 12]		without deleterious effects on SOICR inhibition	
COc1ccccc1CCCNCC(O)COc1cccc2[nH]c3ccccc3c12 (stereo not drawn) [Compound 13]		without deleterious effects on SOICR inhibition	
OC(CNCCCc1ccccc1)COc1cccc2[nH]c3ccccc3c12 (stereo not drawn) [Compound 14]		without deleterious effects on SOICR inhibition; also recorded: roughly twice as potent as 1	
COc1ccccc1OCCN1CC(COc2ccc3[nH]c4ccccc4c3c2)OCC1=O (stereo not drawn) [Compound 41]		superior to carvedilol	
COc1ccccc1OCCNCC(O)CCOc1ccc2[nH]c3ccccc3c2c1 (stereo not drawn) [Compound 43]		superior to carvedilol	
COc1ccccc1OCCNCCC(O)COc1ccc2[nH]c3ccccc3c2c1 (stereo not drawn) [Compound 46]		more potent product than carvedilol	
COc1ccccc1OCCNCC(O)COc1cccc2ccccc12 (stereo not drawn) [Compound 68]		potent SOICR inhibitors	
COc1ccccc1OCCNCC(O)CCOc1cccc2ccccc12 (stereo not drawn) [Compound 69]		potent SOICR inhibitors	
COc1ccccc1OCCNCC(O)COc1ccc2[nH]c3ccc(Br)cc3c2c1Br (stereo not drawn) [Compound 97]		improved substantially; also recorded: complete absence of SOICR inhibitory activity; also recorded: measurable effect on SOICR suppression	
COc1ccc2c(c1)CN(C)CCS2.Cl [Compound 100, reference compound]		neither S107, its hydrochloride salt 100, nor its isomer 101 displayed any measurable activity	
COc1ccc2c(c1)N(C)CCCS2 [Compound 101, reference compound]		neither S107, its hydrochloride salt 100, nor its isomer 101 displayed any measurable activity	
COc1ccc2c(c1)CN(C(=O)CCN1CCC(Cc3ccccc3)CC1)CCS2.Cl [Compound 102, JTV519, reference compound]		some SOICR inhibitory activity	measurable effect on SOICR suppression
